Reference: US20070105759 (published 2007)

Protein sequences, listed by entry. Tags and fused reporters are not part of them.
UniProt P32245, whole entry: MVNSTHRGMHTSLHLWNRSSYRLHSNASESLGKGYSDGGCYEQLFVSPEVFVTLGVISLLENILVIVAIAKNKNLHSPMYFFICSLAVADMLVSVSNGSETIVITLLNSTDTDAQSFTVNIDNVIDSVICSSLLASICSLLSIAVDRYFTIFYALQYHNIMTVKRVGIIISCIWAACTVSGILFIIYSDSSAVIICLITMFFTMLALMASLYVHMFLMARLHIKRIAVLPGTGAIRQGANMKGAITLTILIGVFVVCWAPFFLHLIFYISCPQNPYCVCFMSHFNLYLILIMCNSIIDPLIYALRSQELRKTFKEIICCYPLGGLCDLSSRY

Target: human MC4 receptor (human, UniProt P32245)
Experiment: competition

- Ki: 1.11 nM
B1: Compound 87 (peptide)
chain: RCEHFRWC
modifications: cyclic (Cys-Cys), Ac, 1-Me-His, 4-Cl-D-Phe, NH2; name in text has N-terminal Tyr absent in listing
